From patent publication US20200330484A1, “STEROIDAL COMPOUNDS FOR TREATMENT OF MENTAL AND NEUROLOGICAL DISORDERS” (USTAV ORGANICKE CHEMIE A BIOCHEMIE AV CR, V.V.I., priority 2017, published 2020)
Values belong to the compound of their own block, whether it stands above or below them.

By UniProt entry, the sequences of proteins in these tests, tags left out. Residues count along the entry.
UniProt Q13224, 27-1484 W607C: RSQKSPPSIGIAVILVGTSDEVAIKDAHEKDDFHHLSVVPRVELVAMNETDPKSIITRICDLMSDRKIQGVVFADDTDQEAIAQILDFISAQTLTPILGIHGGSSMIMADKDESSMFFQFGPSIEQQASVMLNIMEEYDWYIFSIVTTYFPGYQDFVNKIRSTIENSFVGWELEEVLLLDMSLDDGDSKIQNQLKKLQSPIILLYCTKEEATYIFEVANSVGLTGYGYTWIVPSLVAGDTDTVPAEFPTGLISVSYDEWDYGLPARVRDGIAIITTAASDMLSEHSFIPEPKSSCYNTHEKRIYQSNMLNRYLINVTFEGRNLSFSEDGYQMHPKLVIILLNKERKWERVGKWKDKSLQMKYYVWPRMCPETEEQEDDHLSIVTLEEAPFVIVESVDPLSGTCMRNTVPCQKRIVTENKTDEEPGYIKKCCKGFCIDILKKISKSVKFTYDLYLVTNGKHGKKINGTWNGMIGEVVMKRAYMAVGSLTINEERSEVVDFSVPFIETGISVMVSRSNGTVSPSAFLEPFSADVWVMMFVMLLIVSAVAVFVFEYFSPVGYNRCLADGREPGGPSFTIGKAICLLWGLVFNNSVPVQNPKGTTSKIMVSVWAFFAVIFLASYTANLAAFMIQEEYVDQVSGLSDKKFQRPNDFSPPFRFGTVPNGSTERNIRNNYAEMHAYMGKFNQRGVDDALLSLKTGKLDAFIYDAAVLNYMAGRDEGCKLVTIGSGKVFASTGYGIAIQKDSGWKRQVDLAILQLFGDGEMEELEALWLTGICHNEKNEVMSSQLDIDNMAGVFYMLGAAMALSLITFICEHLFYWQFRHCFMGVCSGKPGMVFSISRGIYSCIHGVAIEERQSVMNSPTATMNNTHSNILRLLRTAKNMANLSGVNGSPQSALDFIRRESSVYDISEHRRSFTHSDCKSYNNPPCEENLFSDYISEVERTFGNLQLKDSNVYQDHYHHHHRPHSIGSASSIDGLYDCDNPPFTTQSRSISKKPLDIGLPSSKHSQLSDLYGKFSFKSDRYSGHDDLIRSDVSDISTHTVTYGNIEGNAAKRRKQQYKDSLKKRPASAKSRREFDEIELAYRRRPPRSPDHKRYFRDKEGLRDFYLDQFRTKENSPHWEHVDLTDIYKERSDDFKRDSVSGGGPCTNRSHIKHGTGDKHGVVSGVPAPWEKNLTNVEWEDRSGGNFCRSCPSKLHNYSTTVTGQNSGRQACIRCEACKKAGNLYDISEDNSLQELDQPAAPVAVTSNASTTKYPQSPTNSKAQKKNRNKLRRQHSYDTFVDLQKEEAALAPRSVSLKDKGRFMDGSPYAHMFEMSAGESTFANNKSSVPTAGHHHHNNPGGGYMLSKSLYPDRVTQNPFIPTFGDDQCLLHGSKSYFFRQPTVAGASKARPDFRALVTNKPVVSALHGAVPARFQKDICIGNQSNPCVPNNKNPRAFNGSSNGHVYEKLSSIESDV

Target: T1, hGluN1/hGluN2B(W607C) receptors (Homo sapiens, UniProt Q05586+Q13224, W607C)
T1 construct: The amino acids are numbered on the basis of the full-length protein, including the signal peptide; expressed in transfected cells; host or cells: HEK293T
Assay: Whole-cell patch clamp, steroid potentiation of responses tonically activated by low concentration of glutamate
Assay type: cell-based
Conditions: HEK293T, mean ± SEM
Description: Human embryonic kidney-293T (HEK293T) cells were used for transfection of human genes encoding for NMDA receptor subunits: hGluN1 (GenBank, accession number NP_015566) and hGluN2B (GenBank, accession number NP_000825). Equal amounts ([…]) of DNA encoding for GluN1 and GluN2B were mixed with 0.9 μl Matra-A Reagent (IBA, Gottingen, Germany) and added to confluent HEK293T cells. After trypsinization, the cells were resuspended in Opti-MEM I (ThermoFisher Scientific, Paisley, UK; Cat. #31985062) containing 1% fetal bovine serum supplemented with 15 mmol·l^−1 MgCl2, 1 mmol·l^−1 D,L-2-amino-5-phosphonopentanoic acid (D,L-AP5), and 1 μmol.l^−1 ketamine.
Mutations in the GluN2B subunit were made using the QuickChange Site-Directed Mutagenesis Kit (Agilent Technologies, Santa Clara, Calif., USA) according to the manufacturer's instructions. Mutated cDNA was transformed into ultra-competent XL1Gold E. coli cells, multiplied, positive clones were selected, and the isolated plasmide DNA was verified by sequencing (SEQme s.r.o., Dobris, Czechia, or GATC Biotech AG, Constance, Germany) All mutations were verified by DNA sequencing. Transfected HEK293T cells were identified by GFP epifluorescence. The amino acids are numbered on the basis of the full-length protein, including the signal peptide.
Experiments were performed 12-36 h after the end of transfection on cultured HEK293T cells transfected with vectors containing hGluN1/hGluN2B/GFP. Whole-cell voltage clamp current recordings were performed at room temperature (21-25° C.) at a holding potential of −60 mV using a patch-clamp amplifier (Axopatch 200B; Molecular Devices, Sunnyvale, Calif., USA) after a capacitance and series resistance (<10 MΩ) compensation of 80-90%. Data were collected (low-pass filtered at 2 kHz and sampled at 10 kHz) and analyzed using pClamp 10 (Molecular Devices). […]

Compound: C[C@@]12CCC[C@H]1[C@@H]1CC=C3C[C@@H](OC(=O)CCC(=O)O)CC[C@]3(C)[C@H]1CC2 [AE-hSuc, androst-5-en-3β-yl hemisuccinate]
- Potentiating effect (%) (AE-hSuc 30 μmol · l^−1): 406 ± 49 (8)^††; %

- Potentiating effect (%) (PA-But 15 μmol · l^−1): 160 ± 24 (3)^††; %
Compound: CC(=O)[C@H]1CC[C@H]2[C@@H]3CC[C@@H]4CC(=CC=CC(=O)O)CC[C@]4(C)[C@H]3CC[C@]12C [PA-But, 20-oxo-5β-pregnan-3-ylidene-4′-but-2-enoic acid]

Compound: 20-oxo-pregn-5-en-3β-yl sulfate [PE-S]
- Potentiating effect (%) (PE-S 100 μmol · l^−1): 73 ± 16 (8)^†; %
